Yeast mating assay 1: variants of the scFv Ab-14

Data: MIT Lincoln Laboratory AlphaSeq set, Engelhart et al. 2022, doi:10.1038/s41597-022-01779-4, as distributed in FLAb.

All variants were tested on one target, the spike HR2 peptide PDVDLGDISGINAS (SARS-CoV-2).

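The starting antibody came from a phage panning campaign against this peptide. AAYL49 was designed without a model: most single CDR substitutions and a random sample of double and triple ones. The assay is AlphaSeq: two haploid yeast populations carry antibody and antigen on their surface. Mating (16 h, 30 °C) was followed by selection of diploids and sequencing of their barcodes. Each replicate has its own calibration line, from reference interactions of the BCL2 family. Mating was done three times.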

Parent: Ab-14, a human scFv built as VH, a 15-residue (Gly4Ser)3 linker, VL. Only the CDRs of the heavy chain vary.
VH: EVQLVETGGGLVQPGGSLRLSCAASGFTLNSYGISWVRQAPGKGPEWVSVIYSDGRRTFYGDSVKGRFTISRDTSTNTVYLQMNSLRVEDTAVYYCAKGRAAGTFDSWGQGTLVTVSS
VL: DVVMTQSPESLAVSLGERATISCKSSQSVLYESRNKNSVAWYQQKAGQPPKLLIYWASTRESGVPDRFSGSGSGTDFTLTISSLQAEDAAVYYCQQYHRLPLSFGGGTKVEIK

Positions count from residue 1 of the parent VH; F27L puts L in place of F.
The read-out is the apparent dissociation constant on a log10 scale (nM): the lower, the stronger.
An entry "nd" has no value in the source: the pair was not observed among the diploids in that replicate. This suggests poor binding but is not conclusive.
Nonspecific signal, from three strains lacking the peptide, appeared in 15% of pairings of library AAYL49, centred on 4.06 (5% of these signals below 2.83); values are not corrected for it. For each scFv, signals with the empty controls are counted beside the result.
For reference, the parent read 0.65 as the reference entry and 4.11 (one replicate of three) as a member of this library.

F27L/V64R/A101S: nd, 4.60, nd (controls 2 of 9).
D62G/G99A/R100W: nd, nd, nd (controls 0 of 9).
V50K/Y52F/F59V: nd, nd, nd (controls 0 of 9).
G33N/D54Q/A102I: nd, 5.17, nd (controls 3 of 9).
G26N/D62L/G103D: nd, nd, nd (controls 0 of 9).
T28F/Y32Q/Y52I: nd, 2.55, nd (controls 1 of 9).
Y60C/A101R/T104Q: 3.24, 3.59, nd (controls 1 of 9).
Y52R/S63Y/V64C: nd, nd, nd (controls 0 of 9).
F27H/G55I/R56D: nd, 3.53, nd (controls 6 of 9).
S35P/F105I/S107A: nd, nd, nd (controls 0 of 9).
I51G/V64T/G99W: nd, nd, nd (controls 0 of 9).
I51A/D54Y/D106A: nd, nd, nd (controls 1 of 9).
G33D/I51S/F105M: nd, 4.31, 4.66 (controls 6 of 9).
I34W/S63K/G99R: nd, 4.80, nd (controls 3 of 9).
G33I/I34A/D54N: nd, nd, nd (controls 1 of 9).
R56K/F105S: 0.72, 1.34, 1.54 (controls 2 of 9).
G61E/T104V: 2.97, nd, 2.82 (controls 0 of 9).
D62G/K65V/R100I: nd, nd, nd (controls 0 of 9).
D54V/T58A/T104Q: nd, nd, nd (controls 2 of 9).
D54T/K65V/G99A: nd, nd, nd (controls 0 of 9).
Y52P/R100V/G103M: nd, nd, nd (controls 1 of 9).
D54R/R100S/F105H: nd, nd, 5.88 (controls 2 of 9).
I34L/Y60L: nd, nd, nd (controls 0 of 9).
D54N/T58I/G61P: nd, 2.89, nd (controls 0 of 9).
N30E/Y32V: 1.25, 1.41, 1.68 (controls 0 of 9).
N30E/S53A/R57P: nd, nd, nd (controls 0 of 9).
T28C/S53C/A101T: nd, 3.41, 4.19 (controls 2 of 9).
R56E/F59L/T104F: nd, 3.88, nd (controls 0 of 9).
K65F/A102E: nd, nd, nd (controls 0 of 9).
D62N/V64H/A102E: nd, nd, nd (controls 3 of 9).
F27C/V50F/G99N: nd, nd, nd (controls 0 of 9).
T28V/S31L: 2.26, nd, nd (controls 0 of 9).
F59T/K65N/F105H: nd, nd, 5.33 (controls 2 of 9).
T58V/G61H/A102I: 2.07, 2.01, 2.02 (controls 2 of 9).
S35C/I51K/D54W: nd, nd, nd (controls 1 of 9).
S35I/G99A: nd, nd, nd (controls 0 of 9).
V50P/D54E/S107F: nd, 3.86, nd (controls 1 of 9).
G61H/V64A/A101T: 1.89, 1.17, 2.49 (controls 0 of 9).
Y52Q/V64Q/T104C: nd, 4.66, 5.90 (controls 4 of 9).
R56M/G99R/F105G: nd, nd, nd (controls 4 of 9).

Picked from the list: the 4 lowest averages where every replicate gave a value.

| changes | replicates, log10 nM | signal with controls |
|---|---|---|
| R56K/F105S | 0.72, 1.34, 1.54 | 2/9 |
| N30E/Y32V | 1.25, 1.41, 1.68 | 0/9 |
| G61H/V64A/A101T | 1.89, 1.17, 2.49 | 0/9 |
| T58V/G61H/A102I | 2.07, 2.01, 2.02 | 2/9 |